# Antibody variant affinities, Ab-14 light chain, assay 1

Values reported by Engelhart et al. 2022, doi:10.1038/s41597-022-01779-4 (FLAb copy).

All variants were tested on one target, the spike HR2 peptide PDVDLGDISGINAS (SARS-CoV-2).

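The parent was found by panning a naive human phage display library on the peptide. The library (AAYL50) carries one to three amino acid substitutions per variant, with no insertions or deletions. The assay is AlphaSeq: two haploid yeast populations carry antibody and antigen on their surface. Binding brings cells together so that they mate, and sequencing counts the barcode pairs among the diploids. Scores were corrected for input abundance and mapped to Kd with protein pairs of known affinity run in the same pool. The assay was run in three technical replicates.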

Parent: Ab-14, a human scFv built as VH, a (GGGGS)3 linker, VL. Only the CDRs of the light chain vary.
VH: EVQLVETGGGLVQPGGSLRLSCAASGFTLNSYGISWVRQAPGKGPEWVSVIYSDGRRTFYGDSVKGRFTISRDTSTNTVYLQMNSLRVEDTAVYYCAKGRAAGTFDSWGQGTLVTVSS
VL: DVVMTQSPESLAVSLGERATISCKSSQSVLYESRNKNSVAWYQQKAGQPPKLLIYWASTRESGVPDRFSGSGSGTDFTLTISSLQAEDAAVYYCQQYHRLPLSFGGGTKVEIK

Variants are written as CDR1, CDR2 and CDR3 of the light chain (limits as in the source). Parent: KSSQSVLYESRNKNSVA, WASTRES, QQYHRLPLS.
Values are apparent Kd, the geometric mean of the replicates that gave a signal; lower means stronger binding.
An entry "not detected" has no value in the source: the pair was not observed among the diploids in any replicate. This suggests poor binding but is not conclusive.

CDR-L1	CDR-L2	CDR-L3	Kd	detected
KSSQSVLYSSRNKNSAA	WASTRES	KQYHRLPLS	21 µM	2 of 3
KSSQSVLYESRNKNSMA	WASDRCS	QQYHRLPLS	21 nM	3 of 3
NSSQSSLYESRNKNWVA	WASTRES	QQYHRLPLS	not detected	0 of 3
KSSQSVLYESRNKNSVA	WASTGES	DQYMRLPLS	180 µM	2 of 3
KSSQSVLYESRNKNNNA	WASTRES	QQYHWLPLS	not detected	0 of 3
KSSQSVLYESRNKNQVA	WASTRES	QQYHRSPLN	45 µM	2 of 3
KSSQSVLYESRNKNSAA	WAETRES	QQYHRLPLI	not detected	0 of 3
KSSQSVLYESRNKKSVA	WAITRES	QQYHRLPYS	not detected	0 of 3
KSIQSVLYESRNKNSVA	WASTRES	QQHHRLPLS	13 µM	2 of 3
KSSQSVLYESRNKNFVA	WASTIES	QQYARLPLS	2.1 µM	1 of 3
KSSQSVLYESRNKNSVA	WASLKEH	QQYHRLPLS	140 nM	3 of 3
KSSQSVLYESRNKHAVA	WASTRES	QQYHRLPLV	4.6 nM	3 of 3
KSSQAVLYRSRTKNSVA	WASTRES	QQYHRLPLS	360 nM	2 of 3
KSSQSVLYESRFKNSVA	WVSTRES	QQCHRLPLS	170 µM	2 of 3
KSSQSVTYESRNYNSVA	WASTRES	QQYHRLPLD	5.4 µM	3 of 3
KSSQSVLYESRNKNSVL	WASTRDS	QQVHRLPLS	8.1 µM	3 of 3
FSSQPVLYESRNKNSVA	CASTRES	QQYHRLPLS	210 nM	3 of 3
KSSQQVLYESRNKNSVA	WASTRES	QQLMRLPLS	not detected	0 of 3
KSSQSVLYESRNKASVA	WASTREH	QQYHRLPLR	190 nM	3 of 3
KSSESVLYESRNKNSVA	WASTRES	QQLHRLPLS	1.8 µM	3 of 3
KSSQVVLYESRNKNSVA	WASTRES	QRYHCLPLS	81 nM	3 of 3
KSSQSVLYESRNKNSVA	WAHIRES	QQYHRLPLS	25 nM	3 of 3
KSSSSVLYESRNKESVA	WWSTRES	QQYHRLPLS	73 µM	2 of 3
KSSQSVIYESRNKNSVA	WASTFEV	QQYHRLPLS	12 µM	1 of 3
DSNQVVLYESRNKNSVA	WASTRES	QQYHRLPLS	8.1 µM	3 of 3
KSIQYVLYESRNKNSVA	WASCRES	QQYHRLPLS	310 nM	3 of 3
KSSQSVLYESRNKNSVA	WADTRYS	DQYHRLPLS	170 nM	3 of 3
KSSQSVLYESRNKNSVA	WAMTRES	QQYHRLPLR	5.1 µM	2 of 3
KSSQSVLYESRQKNSPA	WASTRES	QQYHRLPLS	22 µM	2 of 3
KSSQSVLYESTNKNSVA	WASTQES	QQYHRLPLS	29 nM	3 of 3
KSSQSVVYESRNKNSVA	WASTRYS	QQYHRLPLS	9.3 µM	2 of 3
KSSQSVPQESRNVNSVA	WASTRES	QQYHRLPLS	31 nM	3 of 3
KSSQSVLYESRNHNSVA	WASTRCS	QQYHRLPLL	20 nM	3 of 3
KSSQIVLYESRNKNSVA	WQSTRER	QQYHRLPLS	16 µM	2 of 3
KSSQQVLYESRNKNSVR	WASTRES	QQYHRLPLS	76 µM	1 of 3
KKSQSVLYESRNKNSVA	WASTRES	QKYHRLPLS	10 nM	3 of 3
KSSQSVLYESYNKNNVA	WASTRES	QQYPRLPLS	160 nM	1 of 3
KSSQSGLYESANKNSVA	AASTRES	QQYHRLPLS	520 pM	3 of 3
KSIQSVLYESFNKWSVA	WASTRES	QQYHRLPLS	7.4 µM	3 of 3
KSSQSVLYESRNKNDVA	WASTRES	QEYHRLWLS	3.0 µM	1 of 3
KSEQSVLYESRNKNSVA	WAVTRES	QQYHRLPLS	not detected	0 of 3
KSSQSVLYETRNKNSDA	WASTREG	QQYHRLPLS	280 µM	1 of 3
KSSQNVLYTSFNKNSVA	WASTRES	QQYHRLPLS	5.2 nM	3 of 3
EQSASVLYESRNKNSVA	WASTRES	QQYHRLPLS	62 µM	1 of 3
KSSQSVLYESRNKNSVA	WWSTRGS	YQYHRLPLS	2.0 µM	1 of 3
KSSQSVLYESRNKNSVA	WMNTRES	QQYHRSPLS	37 nM	3 of 3
KWSHSELYESRNKNSVA	WASTRES	QQYHRLPLS	5.4 nM	3 of 3
KSSQSVLYESRNKNSVA	WASTRES	QQDHDLHLS	36 µM	1 of 3
KSSVSVLYESRNKVSNA	WASTRES	QQYHRLPLS	not detected	0 of 3
WSSQSVLYESRNKTSVA	VASTRES	QQYHRLPLS	26 µM	2 of 3
KSSQSVLYESRNKNSCA	WRSTEES	QQYHRLPLS	not detected	0 of 3
KSSQSVLYESPNKNSVA	WASTRES	LQYHRLPLC	32 µM	1 of 3
KSSQSVLYESRNKGSVA	WASTREQ	QQYYRLPLS	8.3 nM	3 of 3
KSSQSVGYESRNKNSVA	QASERES	QQYHRLPLS	1.2 nM	3 of 3
KCSQSVLYESRNCNSVA	WAFTRES	QQYHRLPLS	220 nM	3 of 3
KSSQSVLYESRCKNSVA	WASTRES	QQYHTLVLS	not detected	0 of 3
KSSQSCLYESRNKNSVA	GASTPES	QQYHRLPLS	10 nM	3 of 3
KSSSSVLYESRNKNSVA	WASTRES	QQYHRLPAS	14 nM	3 of 3
KSSQIVLYETRNKNSVA	WASTRES	QQYHNLPLS	1.5 µM	3 of 3
ASSQQVLYESRAKNSVA	WASTRES	QQYHRLPLS	700 nM	3 of 3
KSSQSVLYEDRNRWSVA	WASTRES	QQYHRLPLS	7.0 nM	3 of 3
KWSQQVLYESRNKNSVA	WASTRES	QSYHRLPLS	1.1 nM	3 of 3
WSKQSVLYESPNKNSVA	WASTRES	QQYHRLPLS	not detected	0 of 3
KSKQSVLYECRNKNSVA	WASTRES	QQYHRLPLS	28 µM	1 of 3
KSSQSVCYESRNKNSKA	WASTRES	QQYGRLPLS	41 µM	3 of 3
KSSQSVLYESRNKNSVA	WHSTRES	QQYHRLPWN	not detected	0 of 3
KDSQSVLYESRNKNSVA	WASTMES	QQAHRLPLS	not detected	0 of 3
KSSQSVLYESRMKNSVA	WASTREP	QQYHRLPLS	12 nM	3 of 3
KFSQSVLYEERNKNSVA	SASTRES	QQYHRLPLS	390 pM	3 of 3
KSSQSPLYESRNKNSVA	WARTRES	QQYHDLPLS	220 nM	3 of 3
KSSQSVLYESRNKNSVA	WVSFREE	QQYHRLPLS	250 nM	3 of 3

Background: pairings of library AAYL50 with three empty control strains gave a value in 18% of cases (median 15 µM, 5th percentile 970 nM). Values in that range, when seen in few replicates, are hard to tell from nonspecific mating.
Parent in this assay: reference entry 4.4 nM, copy in this library 48 nM.